Protein sequences, listed by entry. Tags and fused reporters are not part of them.
UniProt P21554, whole entry: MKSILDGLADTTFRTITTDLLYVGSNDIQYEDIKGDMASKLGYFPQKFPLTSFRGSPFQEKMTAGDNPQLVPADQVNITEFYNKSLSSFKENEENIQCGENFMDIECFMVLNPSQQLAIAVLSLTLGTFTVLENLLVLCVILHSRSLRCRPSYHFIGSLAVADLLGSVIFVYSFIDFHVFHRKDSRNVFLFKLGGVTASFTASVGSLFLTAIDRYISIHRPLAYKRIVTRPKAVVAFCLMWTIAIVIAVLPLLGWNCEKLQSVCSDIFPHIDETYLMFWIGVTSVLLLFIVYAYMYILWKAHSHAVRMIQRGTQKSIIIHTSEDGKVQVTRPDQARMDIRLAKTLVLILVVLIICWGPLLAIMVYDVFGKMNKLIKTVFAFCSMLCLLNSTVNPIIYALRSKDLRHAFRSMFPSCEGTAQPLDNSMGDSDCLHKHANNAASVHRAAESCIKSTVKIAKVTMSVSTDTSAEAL

According to publication PMC5177629, “Selective Estrogen Receptor Modulators: Cannabinoid Receptor Inverse Agonists with Differential CB1 and CB2 Selectivity” (Frontiers in Pharmacology, 2016):

How the values were obtained:
[1] = target: T1, human cannabinoid type-1 receptors (hCB1) (Homo sapiens, UniProt P21554); assay: Adenylyl cyclase assay (basal cAMP), intact CHO-hCB1 cells; type: cell-based; settings: concentrations as high as 10 μM, data not shown
T1 construct: host or cells: CHO cells (CHO-hCB1), membranes or intact cells
Method: Adenylyl cyclase activity was measured using intact CHO-hCB1 or CHO-hCB2 cells, similar to that previously reported ([Rajasekaran et al., 2013]). Briefly, cells cultured between passages 4 and 15 were seeded into 24-well plates at a concentration of 6.5 million cells per plate and incubated overnight in a humidified incubator maintained at 37°C and 5% CO2. Growth media was removed the next day and replaced with media containing […] [^3H]adenine, 0.9g/L NaCl, and 0.5 mM isobutyl-methyl-xanthine (IBMX) for 2–3 h. Radioactive media was then removed and each well treated with 0.5 ml of varying concentrations of SERM compounds in a Krebs-Ringer-HEPES solution (10 mM HEPES, 110 mM NaCl, 25 mM Glucose, 55 mM Sucrose, 5 mM KCl, 1 mM MgCl2, 1.8 mM CaCl2, pH 7.4) containing 0.5 mM IBMX and 10 μM forskolin. Plates were then floated in a 37°C water bath for 15 min before reactions were terminated by addition of 50 μL of 2.2 N HCl to each well.

[2] = target: T1, human cannabinoid type-1 receptors (hCB1); assay: [35S]GTPγS binding, CHO-hCB1 membranes; type: biochemical; settings: 10 μM
Method: In short, pellets were thawed on ice, combined in a 40 ml glass Dounce homogenizer and homogenized in 20 ml of cold buffer (50 mM HEPES at pH 7.4, 3 mM MgCl2, and 1 mM EGTA) using 10 strokes. Homogenates were then centrifuged at 40,000 × g for 10 min at 4°C. After discarding the supernatant, pellets were homogenized and centrifuged twice more. Final pellets were re-suspended in ice-cold 50 mM HEPES, pH 7.4, aliquoted and stored at -80°C for future use. Protein concentration was determined the same day, prior to freezing, using BCA^TM Protein Assay (Thermo Fisher Scientific, Waltham, MA, USA).
Non-specific binding was defined by radioactivity remaining in the presence of 10 μM of non-radioactive GTPγS. All reactions were incubated for 30 min at 30°C, terminated by filtration through Whatman GF/B glass fiber filters (Brandel, Inc.) and followed by four 4 ml washes of ice cold filtration buffer (50 mM HEPES, pH 7.4) containing 0.1% bovine serum albumin. […] Final counts were determined using liquid scintillation spectrophotometry (Tri Carb 2100 TR Liquid Scintillation Analyzer, Packard Instrument Company, Meriden, CT, USA) after overnight incubation. […]
CBRs are coupled to Gi/Go type G-proteins. […] G-protein activation was quantified using employing [^35S]GTPγS, a non-hydrolyzable analog of GTP, that irreversibly binds to the G-proteins when activated.

## Cc1c(C(=O)NN2CCCCC2)nn(-c2ccc(Cl)cc2Cl)c1-c1ccc(I)cc1 [AM-251]
[1]
  effect on basal cAMP levels, CHO-hCB1 cells: do not alter basal cAMP levels
[2]
  reduction of basal G-protein activity, hCB1Rs: over 30%
